The term Ki denotes the dissociation constant of the complex between target and ligand, obtained from inhibition or displacement.

SMILES strings stand for the structures.

In the first assay the target is T1, JAK3 (Homo sapiens, UniProt P52333).
T1 sequence (P52333 1-1124): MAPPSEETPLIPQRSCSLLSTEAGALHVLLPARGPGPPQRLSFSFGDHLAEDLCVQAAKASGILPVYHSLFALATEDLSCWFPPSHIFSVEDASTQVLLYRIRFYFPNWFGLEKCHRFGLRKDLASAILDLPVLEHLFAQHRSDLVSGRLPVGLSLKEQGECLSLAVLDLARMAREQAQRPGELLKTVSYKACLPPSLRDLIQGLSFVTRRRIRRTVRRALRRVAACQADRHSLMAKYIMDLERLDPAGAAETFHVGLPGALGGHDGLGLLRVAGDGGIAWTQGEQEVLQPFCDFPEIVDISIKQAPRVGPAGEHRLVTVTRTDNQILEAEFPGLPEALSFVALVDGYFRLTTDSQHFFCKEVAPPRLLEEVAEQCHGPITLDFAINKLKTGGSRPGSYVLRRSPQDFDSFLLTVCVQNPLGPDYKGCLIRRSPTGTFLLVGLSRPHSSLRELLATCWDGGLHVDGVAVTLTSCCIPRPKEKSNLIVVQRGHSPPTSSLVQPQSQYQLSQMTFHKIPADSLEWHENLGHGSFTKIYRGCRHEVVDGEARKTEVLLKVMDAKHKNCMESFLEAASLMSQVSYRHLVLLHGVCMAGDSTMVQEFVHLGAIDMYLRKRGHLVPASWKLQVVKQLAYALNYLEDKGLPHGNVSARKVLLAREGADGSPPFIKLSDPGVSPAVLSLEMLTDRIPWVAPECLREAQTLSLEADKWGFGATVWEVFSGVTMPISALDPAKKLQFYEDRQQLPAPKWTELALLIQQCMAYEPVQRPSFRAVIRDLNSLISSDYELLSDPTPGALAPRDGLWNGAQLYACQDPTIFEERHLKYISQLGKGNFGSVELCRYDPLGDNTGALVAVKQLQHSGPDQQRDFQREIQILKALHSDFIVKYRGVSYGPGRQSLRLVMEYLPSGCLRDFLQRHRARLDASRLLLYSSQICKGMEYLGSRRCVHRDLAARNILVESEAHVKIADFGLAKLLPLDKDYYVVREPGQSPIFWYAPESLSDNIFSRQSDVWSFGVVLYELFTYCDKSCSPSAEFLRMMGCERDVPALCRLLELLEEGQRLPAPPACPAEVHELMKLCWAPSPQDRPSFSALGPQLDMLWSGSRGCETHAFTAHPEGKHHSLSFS
The experiment in a line: biochemical.
Conditions: not given
In turn, `Cc1cc(Nc2cc(N3CCC3)nc(Sc3ccc(NC(=O)c4c(F)cccc4F)cc3)n2)[nH]n1` [Compound I-2, N-{4-[4-Azetidin-1-yl-6-(5-methyl-2H-pyrazol-3-ylamino)-pyrimidin-2-ylsulfanyl]-phenyl}-2,6-Difluoro-benzamide] came in with an inhibitory constant (Ki) of 150 nM.

`Cc1cc(Nc2cc(N3CCC3)nc(Sc3ccc(NC(=O)c4ccccc4F)cc3)n2)[nH]n1` [Compound I-3] came in with an inhibitory constant (Ki) of 130 nM.

`Cc1cccc(C(=O)Nc2ccc(Sc3nc(Nc4cc(C)[nH]n4)cc(N4CCC4)n3)cc2)c1` [Compound I-4] displayed a Ki of 410 nM.

On to `Cc1cc(Nc2cc(N3CCC3)nc(Sc3ccc(NC(=O)c4ccccc4C)cc3)n2)[nH]n1` [Compound I-5], for which the Ki turned out to be 460 nM.

Regarding `COc1ccccc1C(=O)Nc1ccc(Sc2nc(Nc3cc(C)[nH]n3)cc(N3CCC3)n2)cc1` [Compound I-6], affinity was put at a Ki of 820 nM.

`Cc1cc(Nc2cc(N3CCC3)nc(Sc3ccc(NC(=O)c4cccc(F)c4F)cc3)n2)[nH]n1` [Compound I-7] showed a Ki of 150 nM.

The compound `Cc1cc(Nc2cc(N3CCC3)nc(Sc3ccc(NC(=O)c4ccccc4OC(F)(F)F)cc3)n2)[nH]n1` [Compound I-8] registered a Ki of 810 nM.

As to `Cc1cc(Nc2cc(N3CCC3)nc(Sc3ccc(NC(=O)c4c(Cl)cccc4Cl)cc3)n2)n[nH]1` [Compound I-11], the Ki was 270 nM.

For `Cc1cc(Nc2cc(N3CCC3)nc(Sc3ccc(NC(=O)c4cccc(Cl)c4)cc3)n2)n[nH]1` [Compound I-12], the inhibitory constant (Ki) came to 180 nM.

`Cc1cc(Nc2cc(N3CCC3)nc(Sc3ccc(NC(=O)c4ccccc4C(F)(F)F)cc3)n2)[nH]n1` [Compound I-14] yielded an inhibitory constant (Ki) of 180 nM.

For `CCc1cc(Nc2cc(N3CCC3)nc(Sc3ccc(NC(=O)c4ccccc4Cl)cc3)n2)n[nH]1` [Compound I-16], the Ki is 130 nM.

Compound `COc1cccc(C(=O)Nc2ccc(Sc3nc(Nc4cc(C)n[nH]4)cc(N4CCC4)n3)cc2)c1` [Compound I-18] registered a Ki of 200 nM.

`Cc1cc(Nc2cc(N3CCC3)nc(Sc3ccc(NC(=O)c4ccccc4C(F)F)cc3)n2)[nH]n1` [Compound I-19]: affinity was put at a Ki of 270 nM.

Take `Cc1cc(Nc2cc(N3CCC3)nc(Sc3ccc(NC(=O)c4cc(Cl)ccc4Cl)cc3)n2)n[nH]1` [Compound I-21]: the Ki turned out to be 260 nM.

The assay is the same for the next values; noted with them: 5 μM ATP, 1 μM poly(Glu)4Tyr, 25° C., 1 nM JAK3; read-out: JAK-3 Ki.
For `Cc1cc(Nc2cc(N3CCC3)nc(Sc3ccc(NC(=O)c4ccccc4Cl)nc3)n2)[nH]n1` [Compound I-24], the inhibitory constant (Ki) came out at 500 nM.

Source of the values: patent publication US8557833B2, “Aminopyrimidines useful as kinase inhibitors” (priority 2005, dated 2013).
